Source: patent US20110224245A1, “Treatment Of Neurological Disorders Using Huperzine” (President and Fellows of Harvard College, priority 2008, published 2011)

How the values were obtained:
Format in all cases: in vivo
[1] = tested on: formalin-induced paw-licking; assay: Formalin test (paw licking) in mice; conditions: 1 mg/kg i.p., individual animals
Description: The formalin test for antinociceptive activity is described in numerous publications, e.g., Hunskaar, S., O. B. Fasmer, and K. Hole, J. Neurosci. […] The formalin test is accepted as an art recognized model of persistent clinical pain.
Male Swiss Webster NIH mice (20-30 g; Harlan, San Diego, Calif.) were used in the experiments described herein. Food was withdrawn on the day of experiment. Mice were placed in Plexiglass jars for at least 1 hour to accommodate to the environment. Following the accommodation period, mice were weighed and given either a huperzine compound administered intraperitoneal (i.p.) or oral (p.o.), or the appropriate volume of vehicle (10% Tween-80). Fifteen minutes after the i.p. dosing, and 30 minutes after the p.o. dosing mice were injected with formalin (20 μL of 5% formaldehyde solution in saline) into the dorsal surface of the right hind paw. Mice were transferred to the Plexiglass jars and monitored for the amount of time spent licking or biting the injected paw. Periods of licking and biting were recorded in 5 minute intervals for 40 minutes after the formalin injection. All experiments were done in a blinded manner. The early phase (acute) of the formalin response is measured as licking/biting between 0-5 minutes, and the late phase (inflammatory) is measured from 10-40 minutes. Differences between vehicle and drug treated groups are analyzed by one-way analysis of variance (ANOVA). A P value<0.05 is considered significant.
Fifteen minutes after the i.p. dosing, mice were injected with formalin (20 μL of 5% formaldehyde solution in saline) into the dorsal surface of the right hind paw. Periods of licking and biting were recorded in 5 minute intervals for 40 minutes after the formalin injection as shown below in Tables 1 and 2. All experiments were done according to the art-recognized Anticonvulsant Screening Program of the NINDS at the University of Utah.
Duration of paw licking in the tables below is expressed in seconds.

rats = assay: Toxicity (TOX) / minimal motor impairment, rats, oral; conditions: 1 mg/kg oral
6 Hz seizures = assay: 6 Hz seizure test, mice i.p.; conditions: IP, 1 h
Description: HupA was also evaluated for its ability to modify tonic extension, minimal clonic, limbic seizures in the maximal electroshock seizure (MES), subcutaneous pentylenetetrazol (sc PTZ), and 6 Hz seizure tests following intraperitoneal administration. These three tests are highly predictive of efficacy against human generalized tonic-clonic (MES), generalized myoclonic (sc PTZ), and refractory limbic (6 Hz) seizures, respectively. In addition, it was tested for its ability to prevent the expression of Stage V seizures in the hippocampal kindled rat model of partial epilepsy.
Male, 18-25 g CF1 mice and 100-125 g Sprague-Dawley rats (Charles River Laboratories, Wilmington, Mass.) were used as the experimental animals. Animals were pretreated intraperitoneally (i.p.) with increasing doses of HupA and tested at various times after administration for protection against tonic extension (MES test), minimal clonic (s.c. PTZ test), limbic (6 Hz), or secondarily generalized (kindled rat) seizures. Seizure testing was carried out as follows. For the MES and 6 Hz tests, a drop of anesthetic/electrolyte solution (0.5% tetracaine hydrochloride in 0.9% saline) was applied to the eyes of each animal prior to placement of the corneal electrodes. The electrical stimulus in the MES test was 50 mA, 60 Hz, for mice and 150 mA, 60 Hz, for rats, delivered for 0.2 sec (White et al., 2002, In R. H. Levy et al., eds. Antiepileptic Drugs, 5th edition, p. 36-48, Philadelphia: Lippincott Williams & Wilkins). The ability of the test substance to prevent seizures induced by 6 Hz corneal stimulation (32 mA, 3 sec duration) was assessed at various times after i.p. administration of 1 mg/kg HupA For assessment of hippocampal kindling, HupA (1 mg/kg, i.p.) was administered. The ability of the compound to block the expression of hippocampal kindled seizures was evaluated using the rapid hippocampal kindling model (White et al., 2002). Animals not displaying secondarily generalize seizures were considered protected.
Quantitative data was obtained for Huperzine A in a 6 Hz model as described above (Barton et al., 2001, Epilepsy Res. 47:217-227) using three levels of electrical stimulation.

SMILES: C/C=C1\[C@H]2C=C(C)C[C@]1(N)c1ccc(=O)[nH]c1C2 [Huperzine A]
- Duration of mice paw licking ([1]; 0 min): 0.00 s
- Duration of mice paw licking ([1]; 5 min): 0.00 s
- Duration of mice paw licking ([1]; 10 min): 0.00 s
- Duration of mice paw licking ([1]; 15 min): 0.00 s
- Duration of mice paw licking ([1]; 20 min): 0.00 s
- Duration of mice paw licking ([1]; 25 min): 0.00 s
- Duration of mice paw licking ([1]; 30 min): 0.00 s
- Duration of mice paw licking ([1]; 35 min): 0.00 s
- Duration of mice paw licking ([1]; 40 min): 0.00 s
- TOX N/F, time course (rats; 0.25 h): 0/4
- TOX N/F, time course (rats; 0.5 h): 0/4
- TOX N/F, time course (rats; 1.0 h): 0/4
- TOX N/F, time course (rats; 2.0 h): 0/4
- TOX N/F, time course (rats; 4.0 h): 0/4
- TOX N/F, time course (rats; 6.0 h): 0/4
- N/F (ED50 Biological Response) (6 Hz seizures; 22 mA, 0.09 mg/kg): 1/8
- N/F (ED50 Biological Response) (6 Hz seizures; 22 mA, 0.175 mg/kg): 2/8
- N/F (ED50 Biological Response) (6 Hz seizures; 22 mA, 0.35 mg/kg): 5/8
- N/F (ED50 Biological Response) (6 Hz seizures; 22 mA, 0.7 mg/kg): 7/8
- N/F (ED50 Biological Response) (6 Hz seizures; 32 mA, 0.2 mg/kg): 0/8
- N/F (ED50 Biological Response) (6 Hz seizures; 32 mA, 0.3 mg/kg): 2/8
- N/F (ED50 Biological Response) (6 Hz seizures; 32 mA, 0.415 mg/kg): 7/8
- N/F (ED50 Biological Response) (6 Hz seizures; 32 mA, 0.83 mg/kg): 8/8
